Results reported in PMC6297782, “DNA-Mediated Interferon Signature Induction by SLE Serum Occurs in Monocytes Through Two Pathways: A Mechanism to Inhibit Both Pathways” (Frontiers in Immunology, 2018).

Columns and labels:
[1] = system: CpG-induced ISGs, primary human monocytes; assay: ISG induction by CpG in monocytes (qPCR); type: cell-based; details: CpG with soluble RAGE or blocking anti-FcRIIa antibody, 4 h
Protocol: (§1) Human cells were obtained with approval of the Institutional Review Board of the Feinstein Institute for Medical Research. PBMCs were isolated from blood of healthy donors (New York Blood Center) by density centrifugation. Monocytes were enriched by negative selection using a human monocyte enrichment kit (STEMCELL Technologies). Purity of monocytes (CD11b^+, CD14^+, LAIR-1^+) was determined to be >90% by flow cytometry (FACS Calibur, BD Biosciences, San Jose, CA, USA). Purified monocytes (2 × 10^6 cells/ml) were cultured in U-bottom 96-well plates in X-VIVO 15 serum free medium (Lonza) with the indicated reagents and harvested at 4–6 h later, or at the indicated times. […] Murine monocyte purity was determined to be >90%.
(§2) Total RNA was extracted from cells (1–2 × 10^6 cells per sample) with an RNeasy kit (Qiagen, Germantown, MD, USA) and cDNA was generated using an iScript cDNA synthesis kit (Bio-Rad, Hercules, CA, USA). qRT-PCR was performed on a Light Cycler 480 II (Roche, Indianapolis, IN, USA). […] The relative induction was calculated by 2^−ΔΔCt.
(§3) For RNA interference assays, human monocytes (5 × 10^6 cells) were transfected with RAGE (Thermo Fischer Catalog # AM16708 ID: 110857, 200 nM) or CD32 siRNA (Thermo Fischer Catalog #4392420 ID: s194407, 200 nM) using an Amaxa Nucleofector I Device (Lonza). […] The efficiency of the knockdown was determined by immunofluoresence microscopy and q-PCR. […]

[2] = system: SLE serum-induced interferon signature; set-up: method as in PMID 17417641; details: previous study; cited from earlier work
[3] = system: primary human monocytes / SLE serum-induced ISGs; assay: ISG induction by SLE serum in healthy donor monocytes (qPCR); type: cell-based; details: SLE serum with or without sRAGE or anti-FcRIIa antibody, 4 h; three independent experiments
Protocol: as §1, §2, §3

- monocyte activation by CpG (effect of receptor blockade) [1]: could be suppressed
Substance: sRAGE: Human recombinant sRAGE, soluble form of RAGE acting as a decoy receptor
- inhibition of interferon signature induction by SLE serum [2]: can inhibit the induction of an interferon signature by SLE serum
- induction of IFIT1 or Mx1 by SLE serum after receptor blockade [3]: significantly reduced induction of either IFIT1 or Mx1
